Tests used:
[1] = target: membrane-bound endogenous human CEACAM5 and CEACAM6 on LS 174T cells; test: flow cytometry on LS174T cells with against without 100 nM soluble CEACAM5
[2] = target: membrane-bound endogenous human CEACAM5 and CEACAM6 on BxPC3 cells; test: flow cytometry on BxPC3 cells with against without 100 nM soluble CEACAM5

PR303561 (Tusamitamab) (antibody) gave a fold change of EC50 at the presence of 100 nM soluble protein [1] of 7.3 fold and a fold change of EC50 at the presence of 100 nM soluble protein [2] of 6.9 fold.

Source: US20260258125A1
